Values quoted from earlier work in paper PMC4291147, “Molecular Basis of Histone Tail Recognition by Human TIP5 PHD Finger and Bromodomain of the Chromatin Remodeling Complex NoRC” (Structure(London, England:1993), 2015).
Read-outs that look alike come from different tables or passages of the source.

Experiments:
[1] = molecular target: Histone H4 K16ac peptide (Homo sapiens) (UniProt P62805)
[2] = molecular target: Histone H4 K16ac peptide (Homo sapiens) (UniProt P62805); remark: listed apart in the source

For BPTF BRD (from UniProt Q12830), the Kd [1] is given as 99 µM and the Kd [2] is given as 99 µM.
